From patent US10961189B2, “Spiro-lactam NMDA receptor modulators and uses thereof” (Aptinyx Inc., priority 2016, dated 2021) come the findings set out here.

Protein sequences, listed by entry. Tags and fused reporters are not part of them. Residues count along the entry.
UniProt Q13224, 27-1484 limits assumed: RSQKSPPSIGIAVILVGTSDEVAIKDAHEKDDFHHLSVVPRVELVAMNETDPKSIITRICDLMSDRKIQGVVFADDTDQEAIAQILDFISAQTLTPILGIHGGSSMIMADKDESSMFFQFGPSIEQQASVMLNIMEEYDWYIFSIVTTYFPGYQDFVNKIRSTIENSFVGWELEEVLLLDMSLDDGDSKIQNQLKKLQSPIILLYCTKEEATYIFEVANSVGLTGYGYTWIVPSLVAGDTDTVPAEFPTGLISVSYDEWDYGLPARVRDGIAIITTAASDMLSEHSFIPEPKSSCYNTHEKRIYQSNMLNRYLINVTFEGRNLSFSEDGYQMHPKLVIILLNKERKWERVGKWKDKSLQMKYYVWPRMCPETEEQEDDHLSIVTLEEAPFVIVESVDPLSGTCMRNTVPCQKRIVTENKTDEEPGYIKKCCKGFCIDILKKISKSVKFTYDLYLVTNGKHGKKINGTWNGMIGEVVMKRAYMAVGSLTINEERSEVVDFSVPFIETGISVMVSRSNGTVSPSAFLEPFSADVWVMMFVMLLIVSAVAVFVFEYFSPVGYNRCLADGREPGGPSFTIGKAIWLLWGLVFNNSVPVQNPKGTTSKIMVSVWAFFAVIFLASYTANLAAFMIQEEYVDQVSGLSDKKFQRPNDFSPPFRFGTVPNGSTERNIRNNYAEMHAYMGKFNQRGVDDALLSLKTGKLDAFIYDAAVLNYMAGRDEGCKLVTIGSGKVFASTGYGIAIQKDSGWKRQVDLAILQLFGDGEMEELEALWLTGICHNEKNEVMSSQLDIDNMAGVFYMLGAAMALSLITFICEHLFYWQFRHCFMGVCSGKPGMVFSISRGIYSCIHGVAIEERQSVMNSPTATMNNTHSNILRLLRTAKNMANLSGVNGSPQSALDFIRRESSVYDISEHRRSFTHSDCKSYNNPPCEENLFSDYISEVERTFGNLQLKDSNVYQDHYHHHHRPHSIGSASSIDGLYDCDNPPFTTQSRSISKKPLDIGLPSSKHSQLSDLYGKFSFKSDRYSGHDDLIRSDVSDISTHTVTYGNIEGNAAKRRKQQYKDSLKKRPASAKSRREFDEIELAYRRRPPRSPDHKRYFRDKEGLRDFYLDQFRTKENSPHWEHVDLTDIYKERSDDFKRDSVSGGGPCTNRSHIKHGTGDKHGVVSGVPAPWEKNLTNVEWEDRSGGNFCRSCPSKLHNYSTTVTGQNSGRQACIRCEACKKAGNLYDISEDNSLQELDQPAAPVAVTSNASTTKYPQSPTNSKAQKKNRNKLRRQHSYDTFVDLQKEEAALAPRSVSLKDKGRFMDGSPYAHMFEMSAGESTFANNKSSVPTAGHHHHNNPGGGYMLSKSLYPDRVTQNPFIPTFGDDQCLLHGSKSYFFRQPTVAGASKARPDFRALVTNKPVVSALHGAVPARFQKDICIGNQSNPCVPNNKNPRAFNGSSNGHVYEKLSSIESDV
UniProt Q12879, 23-1464 limits assumed: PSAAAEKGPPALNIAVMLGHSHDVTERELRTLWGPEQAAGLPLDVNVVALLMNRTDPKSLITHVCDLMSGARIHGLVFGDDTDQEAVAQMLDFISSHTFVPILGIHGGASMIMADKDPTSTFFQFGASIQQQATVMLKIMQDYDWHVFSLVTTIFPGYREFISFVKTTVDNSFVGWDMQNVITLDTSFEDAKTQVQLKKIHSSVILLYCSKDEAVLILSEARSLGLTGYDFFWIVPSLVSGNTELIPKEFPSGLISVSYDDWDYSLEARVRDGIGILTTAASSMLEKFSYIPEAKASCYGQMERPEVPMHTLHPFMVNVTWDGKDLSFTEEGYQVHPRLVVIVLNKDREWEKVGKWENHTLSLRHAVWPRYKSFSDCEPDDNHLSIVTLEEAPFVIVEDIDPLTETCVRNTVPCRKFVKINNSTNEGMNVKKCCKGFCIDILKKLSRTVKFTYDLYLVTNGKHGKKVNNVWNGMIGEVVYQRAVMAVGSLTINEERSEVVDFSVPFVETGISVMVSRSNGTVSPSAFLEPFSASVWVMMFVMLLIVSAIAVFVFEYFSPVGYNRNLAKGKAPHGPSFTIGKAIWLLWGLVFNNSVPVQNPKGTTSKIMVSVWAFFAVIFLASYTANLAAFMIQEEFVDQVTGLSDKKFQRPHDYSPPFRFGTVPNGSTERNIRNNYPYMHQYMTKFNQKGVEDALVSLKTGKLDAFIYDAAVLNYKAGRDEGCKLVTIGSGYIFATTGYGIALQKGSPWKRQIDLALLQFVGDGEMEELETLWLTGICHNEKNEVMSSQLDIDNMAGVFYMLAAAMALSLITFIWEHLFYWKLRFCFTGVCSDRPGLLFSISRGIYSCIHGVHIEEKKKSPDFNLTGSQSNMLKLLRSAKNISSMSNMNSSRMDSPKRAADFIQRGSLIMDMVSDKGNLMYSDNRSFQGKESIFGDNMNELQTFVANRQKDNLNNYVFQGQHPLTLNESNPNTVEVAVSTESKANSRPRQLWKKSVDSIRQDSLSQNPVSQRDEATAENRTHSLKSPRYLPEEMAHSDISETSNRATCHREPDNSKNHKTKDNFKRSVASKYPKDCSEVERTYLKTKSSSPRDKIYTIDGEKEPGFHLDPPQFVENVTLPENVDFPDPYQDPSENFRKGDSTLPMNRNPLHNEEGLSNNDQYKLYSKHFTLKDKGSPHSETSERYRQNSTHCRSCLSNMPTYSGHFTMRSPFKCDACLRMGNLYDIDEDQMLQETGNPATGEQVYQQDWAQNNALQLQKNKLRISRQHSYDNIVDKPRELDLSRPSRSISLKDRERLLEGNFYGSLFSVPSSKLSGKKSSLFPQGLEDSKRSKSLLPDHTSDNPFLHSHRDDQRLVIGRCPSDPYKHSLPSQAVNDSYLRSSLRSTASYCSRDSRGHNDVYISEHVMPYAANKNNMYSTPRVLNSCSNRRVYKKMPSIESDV

Molecules are shown by their SMILES.

The term EC50 denotes the concentration at which the effect is half-maximal.

The target in one assay is NMDAR2B (Homo sapiens, UniProt Q13224). Put plainly: [3H]MK-801 binding in NMDAR expressing HEK cell membranes (facilitation of NMDAR activation). As for the experimental part: (§1) Assays were conducted as described by Moskal et al., “GLYX-13: a monoclonal antibody-derived peptide that acts as an N-methyl-D-aspartate receptor modulator,” Neuropharmacology, 49, 1077-87, 2005. These studies were designed to determine if the test compounds act to facilitate NMDAR activation in NMDAR2A, NMDAR2B, NMDAR2C or NMDAR2D expressing HEK cell membranes as measured by increases in [^3H]MK-801 binding.
(§2) In the assay, 300 μg of NMDAR expressing HEK cell membrane extract protein was preincubated for 15 minutes at 25° C. in the presence of saturating concentrations of glutamate (50 μM) and varying concentrations of test compound (1×10^15M−1×10^−7M), or 1 mM glycine. Following the addition of 0.3 μCi of [^3H]MK-801 (22.5 Ci/mmol), reactions were again incubated for 15 minutes at 25° C. (nonequilibrium conditions). Bound and free [^3H]MK-801 were separated via rapid filtration using a Brandel apparatus.
(§3) In analyzing the data, the DPM (disintegrations per minute) of [^3H]MK-801 remaining on the filter were measured for each concentration of test compound or for 1 mM glycine. The DPM values for each concentration of a ligand (N=2) were averaged. The baseline value was determined from the best fit curve of the DPM values modeled using the GraphPad program and the log(agonist) vs. response (three parameters) algorithm was then subtracted from all points in the dataset. The % maximal [^3H]MK-801 binding was then calculated relative to that of 1 mM glycine: all baseline subtracted DPM values were divided by the average value for 1 mM glycine. The EC50 and % maximal activity were then obtained from the best fit curve of the % maximal [^3H]MK-801 binding data modelled using the GraphPad program and the log(agonist) vs. response (three parameters) algorithm.
(§4) The tables below summarize the results for the wild type NMDAR agonists NMDAR2A, NMDAR2B, NMDAR2C, and NMDAR2D, and whether the compound is not an agonist (−), is an agonist (+), or is a strong agonist (++), where column A is based on the % maximal [^3H]MK-801 binding relative to 1 mM glycine (−=0; <100%=+; and >100%=++); and column B is based on log EC50 values (0=−; ≥1×10^−9 M (e.g., −8)=+; and <1×10^−9 M (e.g., −10)=++).

The target of another assay is NMDAR2A (Homo sapiens, UniProt Q12879). The assay is described as above. The procedure: as §1, §2, §3, §4
Where [1] appears, read: 50 μM glutamate, tested form: Na salt.
[2] abbreviates: read-out: B: log EC50 (converted), 50 μM glutamate, tested form: Na salt.

With `CC1CCC2(CC1)CN([C@@H](CO)C(=O)O)C2=O` (stereo partly shown), the “A: % maximal [3H]MK-801 binding relative to 1 mM glycine” value on NMDAR2B (setting [1]) was “++ (>100%=++)”; on NMDAR2A (setting [1]), “+ (<100%=+)”. Further, the EC50 at NMDAR2B (setting [2]) and on NMDAR2A (setting [2]) was less than 1 nM throughout.
